Sequences of proteins named here, by UniProt entry; tags and fusion partners are left off.
UniProt Q13564, whole entry, chain 1 of 2: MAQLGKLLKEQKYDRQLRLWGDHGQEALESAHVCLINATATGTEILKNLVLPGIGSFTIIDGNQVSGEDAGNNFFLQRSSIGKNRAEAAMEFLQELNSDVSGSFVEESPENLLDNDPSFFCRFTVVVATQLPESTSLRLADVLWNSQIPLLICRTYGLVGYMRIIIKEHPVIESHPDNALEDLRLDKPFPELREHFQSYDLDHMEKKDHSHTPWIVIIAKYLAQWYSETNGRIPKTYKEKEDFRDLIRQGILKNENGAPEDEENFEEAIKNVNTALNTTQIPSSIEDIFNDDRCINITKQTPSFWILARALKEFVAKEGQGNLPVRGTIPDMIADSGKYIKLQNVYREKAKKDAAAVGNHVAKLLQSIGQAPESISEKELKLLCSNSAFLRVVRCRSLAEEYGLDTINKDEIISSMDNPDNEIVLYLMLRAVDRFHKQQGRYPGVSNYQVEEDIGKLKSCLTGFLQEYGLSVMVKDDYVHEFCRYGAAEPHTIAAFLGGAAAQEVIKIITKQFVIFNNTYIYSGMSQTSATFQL

The test deals with Nedd8 activating enzyme (NAE), heterodimer of APPBP1 and Uba3 (UniProt Q13564).
“pND22 (70VRLMFGG76), Nedd8-mimicking peptide” yielded a K1/2 of the ATP-PPi exchange reaction catalysed by NAE, saturating ATP of 51 µM. The result for “pND20 (70VILTFGG76), Nedd8-mimicking peptide” reads 42 µM; that for “pNedd8 (70VLALRGG76), peptide with the native C-terminal sequence of Nedd8”, 88 µM.

The values above are taken from paper PMC3822002 (Chembiochem : a European journal of chemical biology, 2013).
